# Experimental data: patent publication US10239843B2 (CANCER RESEARCH TECHNOLOGY LIMITED, priority 2014, dated 2019)
# The chains behind the UniProt entries cited, without tags or fusion partners. Where a name states a change or a piece, a line headed by the entry shows the natural chain unless it says otherwise.
# UniProt Q86W56: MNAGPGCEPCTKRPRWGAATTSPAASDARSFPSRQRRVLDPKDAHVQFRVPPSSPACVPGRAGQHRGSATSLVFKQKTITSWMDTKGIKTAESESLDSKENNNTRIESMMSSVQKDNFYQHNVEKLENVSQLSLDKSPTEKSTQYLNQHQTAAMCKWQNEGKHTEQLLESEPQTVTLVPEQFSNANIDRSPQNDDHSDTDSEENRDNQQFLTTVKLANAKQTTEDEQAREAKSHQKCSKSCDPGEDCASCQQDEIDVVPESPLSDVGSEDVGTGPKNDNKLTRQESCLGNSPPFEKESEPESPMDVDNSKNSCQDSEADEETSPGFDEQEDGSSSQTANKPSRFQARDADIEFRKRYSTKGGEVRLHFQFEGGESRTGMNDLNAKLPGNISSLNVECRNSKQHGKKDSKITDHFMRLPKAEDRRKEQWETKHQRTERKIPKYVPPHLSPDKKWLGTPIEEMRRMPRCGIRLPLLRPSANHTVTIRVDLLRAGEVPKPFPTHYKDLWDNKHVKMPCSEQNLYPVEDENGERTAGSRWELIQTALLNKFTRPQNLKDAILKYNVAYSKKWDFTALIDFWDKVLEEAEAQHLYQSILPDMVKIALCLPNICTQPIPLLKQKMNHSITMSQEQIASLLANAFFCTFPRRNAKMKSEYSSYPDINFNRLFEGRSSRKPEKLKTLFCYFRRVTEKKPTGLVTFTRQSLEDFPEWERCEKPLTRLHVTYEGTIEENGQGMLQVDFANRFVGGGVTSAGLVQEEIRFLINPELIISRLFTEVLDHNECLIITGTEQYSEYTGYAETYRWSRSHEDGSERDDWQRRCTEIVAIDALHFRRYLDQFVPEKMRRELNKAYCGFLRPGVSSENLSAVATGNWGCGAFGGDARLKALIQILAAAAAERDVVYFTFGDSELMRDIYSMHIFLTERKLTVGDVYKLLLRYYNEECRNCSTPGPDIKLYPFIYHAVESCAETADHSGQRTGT
# Read-outs that look alike come from different tables or passages of the source.
# Key:
# [1] = target: Human Full Length PARG (Homo sapiens (Human), UniProt Q86W56); assay: PARG enzyme assay (TR-FRET); assay type: biochemical
# [2] = tested on: PARG in HeLa cell line; assay: PARG cell assay (PAR chain immunofluorescence after MMS); assay type: cell-based; settings: Homo sapiens, read-out: PARG Cell IC50
# [3] = read-out: PARG Biochem IC50 Geomean
"IC50 [1, 3]",Structure (SMILES),further results
29 nM,Cn1cc(Cn2c(=O)c3cc(S(=O)(=O)NC4(C)CC4)ccc3n(CC3CC3)c2=O)cn1 [Example 174],
1160 nM,Cn1c(=O)n(CC(=O)c2ccc(N)cc2)c(=O)c2cc(S(=O)(=O)NC3(C)CC3)ccc21 [Example 87],
1040 nM,Cc1noc(C)c1Cn1c(=O)c2cc(S(=O)(=O)NC3(C)CC3)ccc2n(Cc2c(C)noc2C)c1=O [Eaxmple 129],
,"CC1(NS(=O)(=O)c2ccc3ccnc(Cl)c3c2)CC1 [Example 484, 1-Chloro-N-(1-methylcyclopropyl)isoquinoline-7-sulfonamide]",IC50 [2]: 1610 nM
5300 nM,C[C@@H](c1ccccc1)n1c(=O)n(C)c(=O)c2cc(S(=O)(=O)NC3(C)CC3)ccc21 [Exampel 132],
,"Cc1cc(Cn2c(=O)n(Cc3nnc(C)s3)c(=O)c3cc(S(=O)(=O)NC4(CF)CC4)ccc32)n(C)n1 [Example 603, 1-[(2,5-Dimethylpyrazol-3-yl)methyl]-N-[1-(fluoromethyl)cyclopropyl]-3-[(5-methyl-1,3,4-thiadiazol-2-yl)methyl]-2,4-dioxo-quinazoline-6-sulfonamide]",IC50 ([1]; read-out: PARG Biochem IC50): 29 nM
